The results in this text go back to patent publication US20010010919A1 (published 2001).

By UniProt entry, the sequences of proteins in these tests, tags left out. Where a name states a change or a piece, a line headed by the entry shows the natural chain unless it says otherwise.
UniProt P35370: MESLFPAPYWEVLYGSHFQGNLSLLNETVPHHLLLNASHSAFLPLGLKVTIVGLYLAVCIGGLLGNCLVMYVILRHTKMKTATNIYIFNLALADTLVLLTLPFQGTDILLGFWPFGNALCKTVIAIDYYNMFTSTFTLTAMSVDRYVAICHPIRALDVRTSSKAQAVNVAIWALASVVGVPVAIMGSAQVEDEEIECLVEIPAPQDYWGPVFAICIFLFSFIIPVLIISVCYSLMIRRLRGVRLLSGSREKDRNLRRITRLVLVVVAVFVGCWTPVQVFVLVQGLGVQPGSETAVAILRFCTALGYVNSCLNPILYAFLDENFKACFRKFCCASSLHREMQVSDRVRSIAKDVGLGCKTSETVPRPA

The target of assay [1] is T1, orphanin FQ receptor (rat, UniProt P35370 1-367).
T1 chain: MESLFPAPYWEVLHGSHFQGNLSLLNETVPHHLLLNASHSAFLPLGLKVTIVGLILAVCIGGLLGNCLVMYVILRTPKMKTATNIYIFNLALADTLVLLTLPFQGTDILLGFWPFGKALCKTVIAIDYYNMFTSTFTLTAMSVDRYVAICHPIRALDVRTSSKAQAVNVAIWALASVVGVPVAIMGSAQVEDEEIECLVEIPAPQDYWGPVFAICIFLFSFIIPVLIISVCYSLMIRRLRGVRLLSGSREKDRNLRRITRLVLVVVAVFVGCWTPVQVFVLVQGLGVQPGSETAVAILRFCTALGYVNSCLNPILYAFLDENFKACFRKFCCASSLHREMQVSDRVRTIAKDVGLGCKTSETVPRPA
The assay is described as follows: cell-based or functional assay.

In assay [2] the target is T1, orphanin FQ receptor. The assay is described as follows: saturation binding of 125I-ligand to membranes of OFQR-transfected CHO cells (LC-7), scintillation proximity, Scatchard analysis. On the technique in general: Scintillation proximity formats need no separation of bound from free tracer.
For assay [3], the target named is T2, µ opioid receptor expressed in CHO cells.
T2 chain: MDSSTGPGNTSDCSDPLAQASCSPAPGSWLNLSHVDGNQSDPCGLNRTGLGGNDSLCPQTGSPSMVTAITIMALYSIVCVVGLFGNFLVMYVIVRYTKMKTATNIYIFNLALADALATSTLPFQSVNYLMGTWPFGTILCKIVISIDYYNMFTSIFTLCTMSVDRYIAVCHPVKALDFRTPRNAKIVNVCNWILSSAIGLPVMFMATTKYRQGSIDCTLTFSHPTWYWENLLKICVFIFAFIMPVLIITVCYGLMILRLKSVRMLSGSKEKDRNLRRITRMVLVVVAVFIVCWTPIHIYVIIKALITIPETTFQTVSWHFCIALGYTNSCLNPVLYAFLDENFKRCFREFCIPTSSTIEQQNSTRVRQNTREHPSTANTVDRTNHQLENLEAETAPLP
Put plainly: competition with [3H]diprenorphine (0.36 nM) on membranes of µ receptor-expressing CHO cells. Here is the method: Stable transfected-CHO cells were rinsed three times with 50 mM Tris-HCl buffer (pH 7.7), harvested and homogenized in the same buffer using a glass-Teflon homogenizer at 4° C. The homogenate was centrifuged at 42,000 g at 4° C. for 15 minutes. The pellet was resuspended in 50 mM Tris-HCl buffer and incubated at room temperature for one hour. Following pre-incubation, the homogenate was centrifuged as described above and the pellet was stored at 70° C. until used. The pellet was thawed, washed with 50 mM Tris-HCl buffer and the homogenate was centrifuged as above. The pellet was resuspended in the binding buffer and the protein concentration was adjusted to 100 μg/μl as determined by a standard curve determined by Lowry assay using bovine serum albumin as the standard.
Binding reactions were conducted in an incubation tube with 50 mM Tris-HCl buffer (pH 7.7) in the presence of 10 micromolar peptidase inhibitor bestatin at 25° C. for 60 minutes in a total volume of 1 ml using a final [³H]diprenorphine concentration of 0.36 nM. All of the tubes contained the membrane preparation and [³H]diprenorphine. A ligand of interest was also added to each membrane/diprenorphine preparation. […] Each of the ligands of interest was present in a concentration from zero in order of magnitude up to 100 micromolar. […]

B1: monoiodo-Y14-orphanin FQ (peptide)
peptide: FGGFTGARKSARKYANQ
modifications: monoiodotyrosine at position 14 (125I in the binding assay; chloramine T method)
notes: Monoiodinated form of the Y14 analogue; also called I-Y14; monoiodinated Y14-orphanin FQ
Turning to B1, in the assay with orphanin FQ receptor [1], the “EC50, cAMP inhibition assay” value came to 3 nM. Moreover, in the assay with orphanin FQ receptor [2], the Kd was 0.1 nM.

B2: Tyr-DAla-Gly-Met-Phe-Gly-ol (DAMGO) (peptide)
peptide: YAGFG
modifications: D-Ala at 2; printed 'Met-Phe' read as N-methyl-Phe at 4; C-terminal Gly-ol
notes: Synthetic µ agonist peptide; also called [3H]-DAMGO
Take B2: in assay [3], the IC50 worked out at 2 nM.

Broadly, the Kd is the concentration at which binding is half-saturated. Read a high Kd as a looser complex. The term IC50 denotes the concentration needed to halve the response being measured.
